Experimental data taken from patent publication US11008292B2, “FGFR4 inhibitor and preparation method and use thereof” (GUANGDONG ZHONGSHENG PHARMACEUTICAL CO., LTD, priority 2016, dated 2021).

The chains behind the UniProt entries cited, without tags or fusion partners. Residues count along the entry.
UniProt P22455, 22-802 limits assumed: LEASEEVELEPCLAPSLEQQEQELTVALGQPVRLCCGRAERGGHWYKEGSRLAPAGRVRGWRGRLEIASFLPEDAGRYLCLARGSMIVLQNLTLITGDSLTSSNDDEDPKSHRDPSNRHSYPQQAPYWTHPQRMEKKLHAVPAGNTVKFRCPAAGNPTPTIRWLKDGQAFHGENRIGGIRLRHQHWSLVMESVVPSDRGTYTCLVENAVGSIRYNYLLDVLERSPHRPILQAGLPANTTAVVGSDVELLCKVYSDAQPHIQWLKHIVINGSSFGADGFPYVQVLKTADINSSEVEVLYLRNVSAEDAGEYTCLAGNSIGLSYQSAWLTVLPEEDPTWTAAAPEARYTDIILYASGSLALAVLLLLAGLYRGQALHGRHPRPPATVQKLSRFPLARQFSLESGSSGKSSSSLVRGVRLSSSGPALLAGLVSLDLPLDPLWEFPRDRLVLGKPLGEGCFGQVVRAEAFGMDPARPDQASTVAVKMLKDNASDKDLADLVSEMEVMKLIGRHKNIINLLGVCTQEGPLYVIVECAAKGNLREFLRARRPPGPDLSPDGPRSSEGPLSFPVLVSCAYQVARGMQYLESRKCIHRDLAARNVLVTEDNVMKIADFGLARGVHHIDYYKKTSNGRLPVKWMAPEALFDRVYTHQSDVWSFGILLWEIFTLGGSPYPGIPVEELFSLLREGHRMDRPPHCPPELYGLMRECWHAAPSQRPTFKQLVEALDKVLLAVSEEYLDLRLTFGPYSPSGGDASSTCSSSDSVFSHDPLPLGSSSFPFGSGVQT
UniProt P11362, 22-822 limits assumed: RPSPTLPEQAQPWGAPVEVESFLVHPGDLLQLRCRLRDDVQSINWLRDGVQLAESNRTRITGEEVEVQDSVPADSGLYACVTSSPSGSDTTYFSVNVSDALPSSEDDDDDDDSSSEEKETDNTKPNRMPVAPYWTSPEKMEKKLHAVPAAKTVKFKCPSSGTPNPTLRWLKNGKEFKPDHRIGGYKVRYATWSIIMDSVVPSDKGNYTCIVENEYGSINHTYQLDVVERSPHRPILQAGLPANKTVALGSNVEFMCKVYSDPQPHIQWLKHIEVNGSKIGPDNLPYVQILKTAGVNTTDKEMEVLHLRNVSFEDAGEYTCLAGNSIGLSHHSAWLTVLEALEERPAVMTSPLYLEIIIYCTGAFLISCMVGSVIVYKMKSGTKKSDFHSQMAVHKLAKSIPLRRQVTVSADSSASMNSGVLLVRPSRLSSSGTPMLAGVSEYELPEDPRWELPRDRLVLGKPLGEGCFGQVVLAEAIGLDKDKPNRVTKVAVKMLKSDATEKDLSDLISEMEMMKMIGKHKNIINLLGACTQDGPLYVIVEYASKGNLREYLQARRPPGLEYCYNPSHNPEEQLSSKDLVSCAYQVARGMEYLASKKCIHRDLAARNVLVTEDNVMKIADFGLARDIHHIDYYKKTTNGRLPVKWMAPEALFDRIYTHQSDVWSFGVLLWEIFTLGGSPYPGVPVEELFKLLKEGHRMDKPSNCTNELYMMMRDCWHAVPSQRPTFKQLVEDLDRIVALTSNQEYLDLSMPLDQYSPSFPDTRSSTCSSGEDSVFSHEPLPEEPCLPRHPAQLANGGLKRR

Assays:
FGFR4 kinases = FGFR4 kinases (Homo sapiens, UniProt P22455); experiment: In vitro enzyme activity test, Z′-LYTE Assay, FGFR4 enzymatic reaction; conditions: read-out: FGFR4 IC50; Z′-LYTE detection; 150 μM ATP
Experimental: (§1) The inhibitory effects of the compounds on FGFR4 kinases were assessed by detecting the enzymatic activities through Z′-LYTE® Assay, with the IC50 value of the compound as the indicator. This activity test was performed by Life technology.
(§2) The test compounds were diluted in a concentration gradient of 3-times, the final concentrations were 10 concentrations ranging from 10 μM to 0.5 nM, with double hole for each concentration; the content of DMSO in the detection reaction was 1%.
FGFR4 Enzymatic Reaction:
[…] The detection plate was Bar-coded Corning, low volume NBS, black 384-well plate, reaction conducted at room temperature for 60 minutes, and the reaction system was 10μμL.
(§3) To the kinase reaction solution was added 5 μL Development reagent B (1:64) to stop the reaction and incubated at 23° C. for 60 minutes, reading the plate with Envision instrument.
(§4) Data was transformed into the phosphorylation rate and the inhibitory rate by curve fitting with Model 205 in XLFIT (iDBS) to obtain the IC50 data of the compounds. It was set as 0% if the bottom of the curve was not in the range of −20% to 20%; otherwise it was set as 100% if the top of the curve was not in the range of 70% to 130%.

FGFR1 protein kinase = FGFR1 protein kinase (Homo sapiens, UniProt P11362); experiment: In vitro enzyme activity test, Z′-LYTE Assay, FGFR1 enzymatic reaction; conditions: read-out: FGFR1 IC50; Z′-LYTE detection; 25 μM ATP
Experimental: as §1, §2
FGFR1 Enzymatic Reaction:
1 nM FGFR1 protein kinase, 2 μM Tyr4 peptide, 25 μM ATP, 50 mM HEPES (pH 7.5), 10 mM MgCl2, 1 mM EGTA, 0.01% BRIJ-35, 2 mM MnCl2, 1 mM DTT. The detection plate was Black Proxiplate 384-Plus plate (PerkinElmer), reaction conducted at room temperature for 60 minutes, and the reaction system was 10μμL.
as §3, §4

IC50 (FGFR4 kinases): 993 nM
IC50 (FGFR1 protein kinase): > 10000 nM
Structure (SMILES): C=CC(=O)Nc1cccc(C)c1Nc1ncc(/C(F)=C/c2c(Cl)c(OC)cc(OC)c2Cl)c(C)n1
